Here are results for one compound from patent publication US9884048B2, “ERK inhibitors” (Merck Sharp & Dohme Corp., priority 2014, dated 2018).

By UniProt entry, the sequences of proteins in these tests, tags left out.
UniProt P28482, whole entry: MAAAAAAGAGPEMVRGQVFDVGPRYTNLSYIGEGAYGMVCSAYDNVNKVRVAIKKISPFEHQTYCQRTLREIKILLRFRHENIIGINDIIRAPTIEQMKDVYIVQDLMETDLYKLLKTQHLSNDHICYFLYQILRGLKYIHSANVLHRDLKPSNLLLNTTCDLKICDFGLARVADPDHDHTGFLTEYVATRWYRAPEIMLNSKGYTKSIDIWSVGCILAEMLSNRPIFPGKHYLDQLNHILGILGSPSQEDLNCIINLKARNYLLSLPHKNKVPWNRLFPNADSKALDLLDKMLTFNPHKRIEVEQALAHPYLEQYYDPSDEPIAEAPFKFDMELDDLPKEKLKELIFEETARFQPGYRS

This experiment has as its target phosphorylated active hERK2 enzyme (Homo sapiens (Human), UniProt P28482). To be noted: ERK2 IC50, IMAP-FP assay; 0.5 nM hERK2, 30 μM ATP; 10 point titration, 3 μM starting concentration.

As a reminder, the IC50 is the concentration that gives 50% inhibition. Higher therefore signals lower potency.

Turning to `Cc1cc(-n2ncc3cc(NC(=O)N[C@H]4CCC[C@@H]4OCCCc4ccccc4)ncc32)ccn1` (racemic) [Example 162, Racemic trans 1-[1-(2-methylpyridin-4-yl)-1H-pyrazolo[3,4-c]pyridin-5-yl]-3-[(1S,2S)and (1R,2R)-2-(3-phenylpropoxy)cyclopentyl] urea], half-maximal inhibition (IC50) required 205 nM.
